Values of other authors as cited in publication PMC6542369 (Bioorganic & medicinal chemistry letters, 2017).

Chains of the proteins cited; added tags and fusions are not shown.
UniProt P08173, whole entry: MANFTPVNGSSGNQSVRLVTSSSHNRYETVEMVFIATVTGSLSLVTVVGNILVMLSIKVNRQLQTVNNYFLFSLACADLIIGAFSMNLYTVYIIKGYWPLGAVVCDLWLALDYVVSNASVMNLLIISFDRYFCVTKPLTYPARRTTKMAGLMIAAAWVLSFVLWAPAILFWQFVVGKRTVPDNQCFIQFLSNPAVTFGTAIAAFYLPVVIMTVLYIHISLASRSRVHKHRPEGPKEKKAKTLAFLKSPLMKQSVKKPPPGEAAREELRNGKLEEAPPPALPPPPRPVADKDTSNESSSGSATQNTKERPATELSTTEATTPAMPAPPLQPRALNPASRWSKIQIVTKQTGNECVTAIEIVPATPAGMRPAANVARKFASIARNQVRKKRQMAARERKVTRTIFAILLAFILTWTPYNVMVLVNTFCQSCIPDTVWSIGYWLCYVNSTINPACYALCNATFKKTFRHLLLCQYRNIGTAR

Molecular target: hM4 (Homo sapiens, UniProt P08173)
Settings: read-out: hM4 EC50; previously reported; cited from earlier work

Cc1nnc2sc(C(=O)NCc3ccc(S(=O)(=O)C(F)(F)F)cc3)c(N)c2c1C [VU0476406]
EC50: 0.091 µM
